Amino acid sequences for entries named in this document (tags omitted). Residues count along the entry.
UniProt Q02763, 23-1124: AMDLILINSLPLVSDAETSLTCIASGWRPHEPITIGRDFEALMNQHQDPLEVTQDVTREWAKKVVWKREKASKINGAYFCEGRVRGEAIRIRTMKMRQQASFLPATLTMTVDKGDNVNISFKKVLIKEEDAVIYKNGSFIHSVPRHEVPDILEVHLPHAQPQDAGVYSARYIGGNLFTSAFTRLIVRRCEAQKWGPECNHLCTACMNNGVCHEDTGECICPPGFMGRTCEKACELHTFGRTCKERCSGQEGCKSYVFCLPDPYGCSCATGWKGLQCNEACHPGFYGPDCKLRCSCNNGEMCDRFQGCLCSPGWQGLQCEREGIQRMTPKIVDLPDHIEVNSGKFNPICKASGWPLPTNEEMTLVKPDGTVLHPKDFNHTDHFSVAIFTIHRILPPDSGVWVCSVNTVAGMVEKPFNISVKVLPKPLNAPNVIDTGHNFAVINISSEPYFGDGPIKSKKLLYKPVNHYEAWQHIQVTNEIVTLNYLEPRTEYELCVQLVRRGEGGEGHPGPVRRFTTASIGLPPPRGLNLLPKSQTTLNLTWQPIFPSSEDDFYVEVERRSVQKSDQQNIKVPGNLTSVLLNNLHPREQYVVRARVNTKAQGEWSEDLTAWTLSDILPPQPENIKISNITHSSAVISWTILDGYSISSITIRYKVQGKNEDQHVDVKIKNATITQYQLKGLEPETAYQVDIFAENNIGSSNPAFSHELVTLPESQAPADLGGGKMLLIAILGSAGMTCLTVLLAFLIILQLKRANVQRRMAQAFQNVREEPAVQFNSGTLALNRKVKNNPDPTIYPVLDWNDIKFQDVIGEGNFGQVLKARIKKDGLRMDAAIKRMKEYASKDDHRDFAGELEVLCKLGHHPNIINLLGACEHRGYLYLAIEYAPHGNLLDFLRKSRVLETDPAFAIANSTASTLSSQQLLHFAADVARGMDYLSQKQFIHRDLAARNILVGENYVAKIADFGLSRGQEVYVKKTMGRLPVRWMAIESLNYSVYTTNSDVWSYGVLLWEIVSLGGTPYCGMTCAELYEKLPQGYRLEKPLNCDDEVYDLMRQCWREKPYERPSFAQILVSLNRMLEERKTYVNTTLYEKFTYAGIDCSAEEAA

In US20250345387A1, “CORONAVIRUS THERAPEUTICS AND TREATMENT METHODS” (priority 2020, published 2025):

Columns and labels:
Tie2 receptor [1] = target: T1, Tie2 receptor (Homo sapiens, UniProt Q02763); experiment: Tie2 phosphorylation ELISA in HUVEC; assay type: cell-based; conditions: 15 minute stimulation, only a single significant response
T1 construct: endogenous in cells; host or cells: HUVEC; HMVEC-tert (human dermal microvascular endothelial cells immortalized with telomerase)
Protocol: Human umbilical vein endothelial cells (HUVECs) were seeded on 100 mm tissue culture plates in complete endothelial basal media (EBM)(Lonza) supplemented with ‘EGM single quots’ (Lonza) in 20% O2, 5% CO2 and 37° C. humidified chamber according to manufacturer's recommendations. Cells that had reached 90% confluence were simulated for 15 minutes with the specified concentrations of parental Vasculotide, MPA-Br or Angiopoietin-1 (R&D Systems) in complete EBM media. Following the 15 minute stimulation, cells were placed on ice and washed twice in ice cold PBS. Cell lysates were prepared for use in 1C12 lysis buffer (1% NP-40, 20 mM Tris (pH 8.0), 137 mM NaCl, 10% Glycerol, 2 mM EDTA, 1 mM activated sodium orthovanadate). BCA protein concentration kit was used to measure protein concentration of each lysate as per manufacturer's instructions (Thermo Scientific). Samples were subjected to ELISAs that measured phosphorylated Tie2 and total Tie2 levels according to the manufacturers protocol. 20 μg or 5 μg of protein from each sample was loaded in duplicate for phosphorylated Tie2 and total Tie2 readings respectively. Phosphorylated Tie2:total Tie2 ratios were determined for each sample. The level of Tie2 phosphorylation for all treatment groups were then normalized to that of the no treatment group (NT, complete EBM only) in each experiment.

Tie2 receptor [2] = target: T1, Tie2 receptor; experiment: Tie2 phosphorylation ELISA in HMVEC^tert; assay type: cell-based
Protocol: Human microvascular endothelial cells (dermal origin) immortalized with human telomerase reverse transcriptase/catalytic subunit (tert), Shao and Guo (2004) were seeded on 100 mm tissue culture plates in complete endothelial basal media-2 (EBM-2)(Lonza) and were cultured in 20% O2, 5% CO2 and 37° C. humidified chamber. Growth media consisted of EBM-2, supplemented with 10% fetal bovine serum, 1× pen/strep, 1 ug/ml hydrocortisone and 100 ng/ml EGF. Cells that had reached 90% confluence were simulated for 15 minutes with the specified concentrations of parental Vasculotide, MPA-Br or Angiopoietin-1 in complete EBM-2 media. Following the 15 minute stimulation, cells were placed on ice and washed twice in ice cold PBS. Cell lysates were prepared for use in IC12 lysis buffer (1% NP-40, 20 mM Tris (pH 8.0), 137 mM NaCl, 10% Glycerol, 2 mM EDTA, 1 mM activated sodium orthovanadate). BCA protein concentration kit was used to measure protein concentration of each lysate. Samples were subject to ELISA measuring pYTie2 and total Tie2 concentration. 20 μg of protein from each sample were loaded to each well, each sample was run in duplicate. Relative pTie2 to total Tie2 ratios were determined for each sample. The level of Tie-2 phosphorylation in each treatment group was normalized to that of EBM-treated group in each experiment.

[3] = target: human Tie2 receptor on human endothelial cells (HUVEC, HMVECtert) (human, UniProt Q02763 23-1124); experiment: cell-based or functional assay

parental Vasculotide: 10 kDa 4-armed polyethylene glycol with Tie2 binding peptides (CHHHRHSF) attached via maleimide; mimics Ang1 [reference compound]
dose with significant Tie2 activation (pTie2/total Tie2 vs no treatment) (Tie2 receptor [1]): 1000 ng/ml
concentration at which activation became apparent, relative to MPA-Br (Tie2 receptor [2]): five times higher concentration

B1: parental Vasculotide (peptide)
peptide: CHHHRHSF
modifications: thiol of the amino terminal cysteine joined to a maleimide arm of a 10 kDa 4-armed polyethylene glycol; mixture of 5-membered succinimide and 6-membered thiazin ring products
notes: Manufactured by Bachem; also called VT; parental VT
relative magnitude of Tie2 activation in HMVECtert [3]: ~2.6 fold
